The values that follow come from PubChem BioAssay AID588413 (Sanford-Burnham Center for Chemical Genomics, 2011).

The list shows a part of the results, in another mix than the full data. Active and inactive are the calls of the source.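 How the source made its calls: active means inhibition above about 55% (limit read from the data); inactive means the rest.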

The nature of this assay: blockers of Gli reporter signaling – luciferase luminescence, Sufu-KO-LIGHT cells, uHTS, primary screen (AID 588413).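 Further: 0% = DMSO-treated cells and 100% = wells with medium but no cells.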 The conditions noted are these: Sufu-KO-LIGHT fibroblasts, at 5 µM, hits give high values.
For `CCOC(=O)c1ccc(NC(=O)C(C)(CCl)SC)cc1` (stereo not given), the inhibition was inactive: -16%. The same measure for `O=C(OC1CN2CCC1CC2)c1cccc([N+](=O)[O-])c1` (stereo not given): inactive: 25.6%; for `CCC(C)N(CC(C)C)C(=S)SC(NC(C)=O)C(Cl)(Cl)Cl` (stereo not given): inactive: 9.44%. Then `COP1(=S)c2c(C)nn(CCC#N)c2N=C(c2ccc(F)cc2)N1C` (stereo not given), with inactive: 5.88%; and `O=C(Nc1ccncc1[N+](=O)[O-])c1ccc([N+](=O)[O-])cc1[N+](=O)[O-]`, with inactive: -0.95%. The same measure for `O=C(COc1ccccc1)OC1CN2CCC1CC2` (stereo not given): inactive: 1.92%; for `CCOC(=O)Nc1cccc([As](=O)(O)O)c1`: inactive: 22.1%; for `O=[N+]([O-])c1ccc(Nc2ccc(Oc3ccc([N+](=O)[O-])cc3[N+](=O)[O-])cc2)c([N+](=O)[O-])c1`: inactive: -7.79%. Turning to `O=P(Nc1ccccn1)(c1cccc2ccccc12)c1cccc2ccccc12`, the inhibition was inactive: -3.05%. `Cc1cc(SC(NC=O)C(Cl)(Cl)Cl)ncn1` (stereo not given): the inhibition is inactive: -4.04%. The same measure for `CC1CCNP(=O)(N(CCCl)CCCl)O1` (stereo not given): inactive: 7.47%; for `CCOC(=O)Nc1ccc([As](=O)(O)O)c(O)c1`: inactive: 7.61%. Then `Cc1cc(SC(NC(=O)c2ccccc2)C(Cl)(Cl)Cl)nc(C(C)C)n1` (stereo not given), with inactive: -3.01%. Then `CCCCOc1ccc(C(=O)NCC2(N3CCCCC3)CCCCC2)cc1OC`, with inactive: 35.5%; and `CC(C)c1ccc(OP(=O)(Nc2ccccn2)Oc2ccccc2F)cc1` (stereo not given), with inactive: 2.87%; and `COC(=O)C1(C)COP(=O)(N2CCCCCC2)OC1` (stereo not given), with inactive: -5.11%. Take `ClCCSc1nnc(-c2cccnc2)o1`: the inhibition is inactive: -13.7%.

For `O=[N+]([O-])c1cc([N+](=O)[O-])c(-c2ccn[nH]2)s1`, the inhibition was inactive: 10.8%. Then `CCN(CC)C(=S)SC(NC=O)C(Cl)(Cl)Cl` (stereo not given), with inactive: -0.59%; and `O=C(OC1CN2CCC1CC2)c1cccc2[nH]cnc12` (stereo not given), with inactive: 8.22%. The same measure for `CC(C)NC(=O)NP(=O)(Oc1ccccc1)Oc1ccccc1`: inactive: -2.4%. Then `COc1cc(C(=O)NCC2(N3CCOCC3)CCCCC2)ccc1OCC(C)C`, with inactive: 24.2%; and `O=[N+]([O-])c1ccc(-c2cc([N+](=O)[O-])c(O)c([N+](=O)[O-])c2)cc1`, with inactive: -8.24%.

As to `O=[As](O)(c1ccc(O)cc1)c1ccccc1O`, the inhibition is inactive: -12.6%. Then `C[As](=O)(O)c1cccc(C(=O)O)c1`, with inactive: 4.99%; and `Cc1ccc2nc3c(c(C)c2c1)CC(C(Cl)Cl)S3` (stereo not given), with inactive: -31%. Then `Cc1ccc(OP(=O)(Nc2ccc([N+](=O)[O-])cn2)Oc2ccc(C)cc2)cc1`, with inactive: 3.82%; and `COc1ccc(N/C(=N/P(=O)(N2CCOCC2)N2CCOCC2)N2CCOCC2)cc1`, with inactive: -2.13%; and `O=[N+]([O-])c1cc(Oc2ccc([N+](=O)[O-])cc2C(F)(F)F)cc([N+](=O)[O-])c1`, with inactive: 5.16%. The same measure for `Cc1cc(=O)[nH]c(N[N+](=O)[O-])n1`: inactive: -2.45%; for `O=C(OC1CN2CCC1CC2)C12CC3CC(CC(C3)C1)C2` (stereo not given): inactive: 1.29%. Turning to `Cc1c2c(nc3ccccc13)SC(C(Cl)Cl)C2` (stereo not given), the inhibition was inactive: -2.06%.

On to `COc1cc(I)ccc1[As](=O)(O)O`, for which the inhibition was inactive: -1.53%. The same measure for `COc1ccc2nc(NP(=O)(c3ccccc3)c3ccccc3)sc2c1`: inactive: 0.29%. The same measure for `O=P1(N(CCCl)CCCl)OCCCN1CCCl` (stereo not given): inactive: -8.15%. The same measure for `O=P1(N(CCCl)CCCl)Nc2ccccc2N1`: inactive: 11.3%; for `CCCOP(=S)(Nc1nc(N)cc(=O)[nH]1)OCCC`: inactive: -0.87%; for `Cc1ccc(NCCc2c([N+](=O)[O-])cc([N+](=O)[O-])cc2[N+](=O)[O-])cc1`: inactive: 43.6%. As to `Nc1cccc2c([As](=O)(O)O)cccc12`, the inhibition is inactive: -12.8%. In the case of `CCOP(=O)(Nc1cccc2ccccc12)OCC`, the inhibition is inactive: 1.42%. As for `COc1cc(C2NCCC3(OCCO3)C2(C)C)cc(OC)c1OC` (stereo not given), the inhibition was inactive: -7.35%. Consider `CS(=O)(=O)c1ccc(Cl)c(NC(=O)COC(=O)C(O)(c2ccccc2)c2ccccc2)c1`, for which the inhibition is inactive: -7.11%. Turning to `COc1cc(C(=O)NCC2(N3CCOCC3)CCCCC2)cc(Cl)c1OC(C)C`, the inhibition was inactive: 38.2%.

For the compound `O=[As](O)(O)c1cccnc1`, the inhibition is inactive: 5.02%. The same measure for `O=C(OC1CN2CCC1CC2)c1ccc(Cl)cc1` (stereo not given): inactive: 5.72%.

As for `O=[As](O)(c1cccc(O)c1)c1cccc(O)c1`, the inhibition was inactive: -1.35%.

As for `Cc1cccc(OCC(=O)OC2CN3CCC2CC3)c1` (stereo not given), the inhibition was inactive: 0.47%. Turning to `NC(=O)Nc1ccc([As](=O)(O)O)cc1`, the inhibition was inactive: -5.15%. Then `CN(C(=O)Cc1ccc(Cl)c(Cl)c1)[C@H]1CC[C@@]2(CCCO2)C[C@@H]1N1CCCC1`, with inactive: 2.18%; and `CN(C)C(=O)c1cc([N+](=O)[O-])cc2c1-c1c(cc([N+](=O)[O-])cc1[N+](=O)[O-])C2=O`, with inactive: 4.65%; and `O=[N+]([O-])c1ccc2c(c1)nnn2O`, with inactive: -5.3%. As for `CCOP1(=S)c2c(C)nn(CCC#N)c2N=C(c2ccc(F)cc2)N1C` (stereo not given), the inhibition was inactive: 2.83%. With `CN(C(=O)Cc1ccccc1)[C@@H]1CC[C@]2(CCCO2)C[C@H]1N1CCCC1`, the inhibition was inactive: 6.43%. Then `N#CCCN(C(=O)COC(=O)C(O)(c1ccccc1)c1ccccc1)c1ccc(F)cc1`, with inactive: -10.6%. Then `CS(=O)(=O)c1cc([N+](=O)[O-])c2no[n+]([O-])c2c1`, with inactive: 0.28%; and `O=P(Nc1nccs1)(c1ccccc1)c1nc2ccccc2s1` (stereo not given), with inactive: -13.4%; and `O=P(Nc1nccs1)(Oc1ccccc1)Oc1ccccc1`, with inactive: -2.97%.

For `CCOP1(=S)c2c(C)nn(CCC#N)c2N=C(c2ccccc2F)N1C` (stereo not given), the inhibition was inactive: -8.33%. Then `Nc1ccccc1[As](=O)(O)c1ccccc1`, with inactive: -9.64%; and `O=C(O)COc1ccc([As](=O)(O)O)cc1[N+](=O)[O-]`, with inactive: -3.09%. Turning to `O=P1(Nc2ncccn2)COc2ccccc2OC1`, the inhibition was inactive: -3.34%. Then `O=P1(Nc2ccc(Br)cn2)COc2ccccc2OC1`, with inactive: 1.74%. Then `Cc1ccc(OCC(=O)OC2CN3CCC2CC3)cc1` (stereo not given), with inactive: -2.46%; and `O=[As](O)(c1cccs1)c1cccs1`, with inactive: 4.14%; and `Nc1cccc([As](=O)(O)c2ccccc2)c1`, with inactive: -0.77%. In the case of `CC1CCC(C(C)C)C(OP(=O)(Nc2ccccn2)c2ccccc2)C1` (stereo not given), the inhibition was inactive: 4.45%. The same measure for `Cc1ccc(C(=O)OC2CN3CCC2CC3)cc1` (stereo not given): inactive: 2.58%. Then `Cc1nn(-c2ccccc2)c2c1P(=O)(N1CCOCC1)N(C)C(c1ccccc1)=N2` (stereo not given), with inactive: 6.49%; and `CCCC1OP(=O)(Nc2ccccc2)OCC1CC` (stereo not given), with inactive: -3.67%; and `O=C(/C=C/c1ccccc1)OC1CN2CCC1CC2` (stereo not given), with inactive: 24.5%.

As for `CN(C)C1(CNC(=O)c2ccc(S(C)(=O)=O)cc2)CCCCC1`, the inhibition was inactive: 5.03%. Then `COc1ccccc1CNC(=O)COC(=O)C(O)(c1ccccc1)c1ccccc1`, with inactive: -4.8%. The same measure for `CC1(CBr)Cn2c(nc3ccccc3c2=O)S1` (stereo not given): inactive: -104%. For the compound `CC(C)/C=N\N=C(\N)N[N+](=O)[O-]`, the inhibition is inactive: -21.2%. As for `CN(CCCl)Cc1cc(Cl)c(NC2=NCCN2)c(Cl)c1`, the inhibition is inactive: 9.33%. Take `CCOP(=O)(Nc1ccc(C)cn1)OCC`: the inhibition was inactive: -5.53%. `CCOP(=O)(NC(=NC(C)c1ccccc1)NC(C)c1ccccc1)OCC` (stereo not given): the inhibition is inactive: 6.29%. `O=P1(Nc2ccccn2)COc2ccccc2OC1`: the inhibition was inactive: 27.4%. As for `CCC1=CC2Cc3nc4ccc(Cl)cc4c(N)c3C(C1)C2` (stereo not given), the inhibition is inactive: 43.8%.

Take `CC(C)(C)C(=O)NC(Sc1ncccn1)C(Cl)(Cl)Cl` (stereo not given): the inhibition was inactive: 6.99%. Then `Clc1n[nH]nc1-c1nn[nH][15n]1`, with inactive: 4.7%; and `CC(C)C(=O)NC(Sc1ccccc1)C(Cl)(Cl)Cl` (stereo not given), with inactive: -4.83%; and `O=P(Nc1nccs1)(c1ccccc1)c1ccccc1`, with inactive: -36.7%.

On to `c1nnnn1CCn1cnnn1`, for which the inhibition was inactive: -2.12%.

Turning to `O=[N+]([O-])c1ccc(O)c(/C=N/Nc2ccc([N+](=O)[O-])cc2[N+](=O)[O-])c1`, the inhibition is inactive: 35.1%. On to `CC(=O)NC(SC(=S)N(C)C)C(Cl)(Cl)Cl` (stereo not given), for which the inhibition is active: 88.3%. The same measure for `O=[N+]([O-])c1ncn(CCn2cnc([N+](=O)[O-])n2)n1`: inactive: -0.34%; for `O=[As](O)(c1ccccc1)c1ccc(O)cc1`: inactive: -5%.

On to `Nc1ccc([As](=O)(O)c2ccc([N+](=O)[O-])cc2)cc1`, for which the inhibition was inactive: -5.56%. Then `C(Cc1nn[nH]n1)Cc1nn[nH]n1`, with inactive: -0.23%. The same measure for `O=C(OC1CN2CCC1CC2)c1cccc(Cl)c1` (stereo not given): inactive: 6.74%. The same measure for `COc1ccc(N)c([N+](=O)[O-])c1[N+](=O)[O-]`: inactive: 6.1%. Regarding `O=P(Nc1ccccn1)(c1ccc(Br)cc1)c1ccc(Br)cc1`, the inhibition is inactive: -1.73%. With `CN(C)C1(CNC(=O)c2ccc(Cl)c(S(N)(=O)=O)c2)CCCCC1`, the inhibition was inactive: 16.2%. Then `C[C@H]1OP(=O)(Oc2ccccc2)[C@H](O)[C@H](O)[C@H]1N=[N+]=[N-]` (stereo not given in full), with inactive: -4.25%; and `O=P(Nc1nc2ccccc2s1)(c1ccccc1)c1ccccc1`, with inactive: -2.37%; and `CC(=O)NC(SC(=S)N(CC(C)C)CC(C)C)C(Cl)(Cl)Cl` (stereo not given), with inactive: 11.2%.

Regarding `Cc1ccc(OP(=O)(Nc2ccccn2)Oc2ccc(C)cc2)cc1`, the inhibition was inactive: 4.91%.

Take `COC(=O)c1cc2c(s1)N=C(c1ccccc1)N(C)P2(=O)N1CCOCC1` (stereo not given): the inhibition was inactive: 1.59%. Then `CCC(=O)N1C2C3N(C(=O)CC)C1C1N(C(=O)CC)C(C(N1C(=O)CC)N3C(=O)CC)N2C(=O)CC`, with inactive: -24.7%.
